Broadly, the Ki is the equilibrium dissociation constant of an inhibitor or competing ligand from its target.

Protein sequences, listed by entry. Tags and fused reporters are not part of them. Residues count along the entry.
UniProt Q13451, 42-130 limits assumed: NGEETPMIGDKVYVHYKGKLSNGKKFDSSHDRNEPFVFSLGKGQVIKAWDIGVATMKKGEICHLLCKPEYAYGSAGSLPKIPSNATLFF
UniProt Q02790, 50-138 limits assumed: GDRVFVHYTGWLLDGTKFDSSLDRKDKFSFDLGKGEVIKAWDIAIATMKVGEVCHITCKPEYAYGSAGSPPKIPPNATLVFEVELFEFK

Here are results for 1 compound from patent publication US9914732B2, “Diazabicyclo[4.3.1]decane derivatives for treatment of psychiatric disorders” (Max-Planck-Gesellschaft zur Forderung der Wissenschaften …, priority 2014, dated 2018).

Assay [1] has as its target FKBP51 (Homo sapiens, UniProt Q13451). Briefly: Fluorescence polarization (FP) assay, binding to the FK506-binding domain of FKBP51. To be noted: read-out: FKBP51 Ki; FK506-binding domain of FKBP51 (FKBP51FK1), competition with fluorescent ligand 2b. On the procedure: (§1) In the present invention, in vitro fluorescence polarization assays with the compounds of the general formula (I) were performed to determine the binding affinities to FKBP51 and FKBP52 or to the isolated FK506-binding domains of FKBP51 and FKBP52 ([…]). Binding to the isolated FK506-binding domains is reliably indicative of binding to the full length proteins. The affinities for the isolated FK506-binding domains and for full-length FKBP51 or FKBP52 are the same for all compounds tested so far (Kozany et al, ChemBioChem 2009, 10, 1402-1410).
(§2) Example 11: Fluorescence Polarization (FP) Assays
(§3) In-vitro fluorescence polarization assays were performed to determine the binding affinities for FKBP51 and 52 according to a literature procedure (Kozany, C.; Marz, A.; Kress, C.; Hausch, F., Fluorescent probes to characterise FK506-binding proteins. Chembiochem 2009, 10, (8), 1402-10).
(§4) For fluorescence polarization assays the fluorescent ligand 2b was dissolved in HEPES (20 mm, pH 8), Triton-X100 (0.01%), at double the concentration required for the final sample. […]
(§5) The samples were transferred to black 384-well assay plates (No.: 3575; Corning Life Sciences). After incubation at room temperature for 30 min the fluorescence anisotropy was measured (GENios Pro, Tecan, Männedorf, Switzerland) by using an excitation filters of 485/20 nm and emission filters of 535/25 nm. […]
Background: Fluorescence polarisation rises when a labelled molecule tumbles more slowly, as on binding a larger partner.

Assay [2] deals with FKBP52 (Homo sapiens, UniProt Q02790). Briefly: Fluorescence polarization (FP) assay, binding to the FK506-binding domain of FKBP52. Particulars: read-out: FKBP52 Ki; FK506-binding domain of FKBP52 (FKBP52FK1), competition with fluorescent ligand 2b. On the procedure:
as §1, §2, §3, §4, §5

For `COCCN1C[C@H](CC(C)O)[C@H]2CCC[C@@H](C1=O)N2S(=O)(=O)c1cc(Cl)cc(Cl)c1` (some centres unmarked), the Ki is 100 to 500 nM in assay [1] and below 100 nM in assay [2].
